Literature values, collected in patent publication US8242152B2, “Use of 4-[(4-thiazolyl)phenoxy]alkoxy-benzamidine derivatives for the prophylaxis and treatment of osteoporosis” (Dong Wha Pharmaceutical Co., Ltd., priority 2001, dated 2012).

Chains of the proteins cited; added tags and fusions are not shown. Lines headed by an entry give the natural chain unless they say otherwise; changes in a name come on top.
UniProt Q15722: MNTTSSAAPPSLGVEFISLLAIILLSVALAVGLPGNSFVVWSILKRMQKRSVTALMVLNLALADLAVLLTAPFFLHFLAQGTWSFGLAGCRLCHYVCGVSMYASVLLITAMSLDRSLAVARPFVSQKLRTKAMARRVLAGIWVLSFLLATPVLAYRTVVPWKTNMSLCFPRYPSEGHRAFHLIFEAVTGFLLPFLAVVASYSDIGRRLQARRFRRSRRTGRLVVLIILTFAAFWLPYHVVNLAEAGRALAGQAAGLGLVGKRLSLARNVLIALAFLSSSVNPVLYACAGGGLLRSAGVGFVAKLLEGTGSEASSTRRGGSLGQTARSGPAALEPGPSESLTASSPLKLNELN

Molecular target: LTB4 receptor (Homo sapiens, UniProt Q15722)
Set-up: endogenous in cells; host or cells: human neutrophils (PMN) purified from fresh blood
Conditions: cited from earlier work

4-[5-[4-(aminoiminomethyl)phenoxy]pentoxy]-3-methoxy-N,N-bis(1-methylethyl)benzamide maleic acid [CGS-25019C]
Inhibition (%) of LTB4 receptor binding (10 nM): 25% | Inhibition (%) of LTB4 receptor binding (100 nM): 84% | Inhibition (%) of LTB4 receptor binding (1 uM): 99% | IC50 (read-out: IC50 (nM) LTB4 receptor binding): 41.2 nM

Like-named read-outs stand apart in the source and are kept apart here.
